The values that follow are results of earlier work, collected in patent publication US20250154607A1, “ISOTHERMAL AMPLIFICATION OF PATHOGENS” (priority 2021, published 2025).

The conditions of this data set: cited from earlier work.

Turning to (2-Hydroxypropyl)-γ-cyclodextrin, the water solubility was 450 mg/mL.
